{"source": "patent US20260384455A1", "about": "“CYCLEN BASED COMPOUNDS AND THEIR GD(III) COMPLEXES FOR USE AS MULTIMODAL PET/MRI CONTRAST AGENTS” (published 2026)", "test": "Kinetic inertness by acid-assisted decomplexation in 0.1M HCl at 37 °C", "details": "for R1p: 0.47 T, 1 mM", "experimental": "FIG. 5: Comparison of kinetic inertness of [Gd(L^4)], [Gd(L^7)] and Magnevist by acid-assisted decomplexation in 0.1M HCl at 37 °C by measurement of relaxation rate on a relaxometer. […] The Rlp value should be the same for all measured complexes after reaching thermodynamic equilibrium but elemental analysis confirmed minor differences in concentrations of the samples (pipetting error) that explain the difference. Data for unchelated GdCl3 solution of the same molar concentration is shown for reference. […] While clinically used Magnevist is decomposed almost immediately (<5 min), [Gd(L^7)] takes longer time to reach complete decomplexation.\nThe kinetic inertness of [Gd(L^4)] and [Gd(L^7)] was tested using acid-assisted decomplexation with HCl (0.1M). Magnevist®, gadolinium-DTPA (diethylenetriamine penta-acetic acid), a clinically used contrast agent was used as a reference and solution of GdCl3 (1 mM) in HCl (0.1M) was used as an example of fully released gadolinium from chelate. All measured complexes were used as 1 mM solutions with a volume of 150 μL and incubated at 37 °C. During decomplexation, the gadolinium ion detaches from the complex and becomes fully solvated. T1 of the sample decreases during this process since solvated gadolinium shortens T1 relaxation time to a greater degree than chelated gadolinium. The reaction reaches equilibrium when the complex is fully decomposed, and all the gadolinium is solvated. The T1 relaxation time isn't decreasing in this equilibrium state anymore. The T1 relaxation time values were determined on a relaxometer at 37 °C and a field strength of 0.47 T. The kinetic inertness was compared in paramagnetic relaxation rate: R1p=1/T1−1/T1d. The longitudinal relaxation time of the HCl (0.1M) corresponds to T1d. […] Over a 240-minute period, the T1 value of [Gd(L^4)] increased by 12%. Situation is different in the case of Magnevist, where the reaction reaches its equilibrium already after 6 minutes (Table 5). The R1p values of the Magnevist sample didn't change over time, so it can be assumed that the complex fully decomposed.", "data": [{"molecule": "O=C(O)CN(CCN(CC(=O)O)CC(=O)O)CCN(CC(=O)O)CC(=O)O.[Gd+3]", "values": [{"measurement": "time at which decomplexation reaction reaches its equilibrium", "value": "≤ 6", "unit": "min"}, {"measurement": "R1p", "setting": "6 min", "value": 8.8, "unit": "s⁻¹"}, {"measurement": "R1p", "setting": "8 min", "value": 8.7, "unit": "s⁻¹"}, {"measurement": "R1p", "setting": "12 min", "value": 8.7, "unit": "s⁻¹"}, {"measurement": "R1p", "setting": "4 h", "value": 8.8, "unit": "s⁻¹"}, {"measurement": "R1p", "setting": "24 h", "value": 8.7, "unit": "s⁻¹"}, {"measurement": "decomposition time", "setting": "FIG. 5", "value": "< 5", "unit": "min"}]}]}
